Source: article PMC11822212, “High-throughput screening identifies Aurora kinase B as a critical therapeutic target for Merkel cell carcinoma” (Nature Communications, 2025)

Legend:
[1] = tested on: VP-MCC cell lines (WAGA, MKL-1, MKL-2); test: qHTS cell viability, VP-MCC cell lines as a group (mean AUC, VP.MCC.avg)
MCC26 cells (VN-MCC) = test: qHTS cell viability (CellTiter-Glo, 72 h; primary and follow-up small molecule screen)
WAGA cells (VP-MCC) = test: as above
MKL-1 cells (VP-MCC) = test: as above
MKL-2 cells (VP-MCC) = test: as above
[2] = tested on: control cell lines (HACAT, HEK293T, CRL-7250, NIH-3T3); test: qHTS cell viability, control cell lines as a group (mean AUC, Control.avg); type: cell-based
HACAT cells = test: qHTS cell viability (CellTiter-Glo, 72 h; primary screen), control cell line
[3] = tested on: MCC cell lines (WAGA, MKL-1, MKL-2, MCC13, MCC26, UISO); test: qHTS cell viability, all six MCC cell lines as a group (mean AUC, MCC.avg)
NIH-3T3 cells = test: qHTS cell viability (CellTiter-Glo, 72 h; primary screen), control cell line
[4] = tested on: VN-MCC cell lines (MCC13, MCC26, UISO); test: qHTS cell viability, VN-MCC cell lines as a group (mean AUC, VN.MCC.avg)
MCC13 cells (VN-MCC) = test: qHTS cell viability (CellTiter-Glo, 72 h; primary and follow-up small molecule screen)
UISO cells (VN-MCC) = test: as above

Structure (SMILES): COc1cc2nc(N3CCN(C(=O)C4CCCO4)CC3)nc(N)c2cc1OC (stereo not drawn) [Terazosin hydrochloride]
- VP-MCC_Avg_AUC [1]: 426.979
- MCC26_AUC (MCC26 cells (VN-MCC)): 406.196
- WAGA_AUC (WAGA cells (VP-MCC)): 445.068
- MKL1_AUC (MKL-1 cells (VP-MCC)): 422.554
- MKL2_AUC (MKL-2 cells (VP-MCC)): 413.313
- Control_Avg_AUC [2]: 478.215
- HACAT_AUC (HACAT cells): 474.971
- MCC_Avg_AUC [3]: 427.348
- NIH3T3_AUC (NIH-3T3 cells): 481.633
- VN-MCC_Avg_AUC [4]: 427.716
- MCC13_AUC (MCC13 cells (VN-MCC)): 440.072
- UISO_AUC (UISO cells (VN-MCC)): 436.881

Structures can show the parent of a compound that is named as a salt.
